According to ChEMBL document CHEMBL5244265 (Bioorg Med Chem, 2020):

Tests used:
[1] = biological target: T1, Neutrophil elastase (Homo sapiens, UniProt P08246); assay: Inhibition of elastase in human neutrophil using MeOSuc-AAPV-AMC as substrate by fluorescence based analysis; assay type: cell-based
T1 sequence (P08246 whole entry): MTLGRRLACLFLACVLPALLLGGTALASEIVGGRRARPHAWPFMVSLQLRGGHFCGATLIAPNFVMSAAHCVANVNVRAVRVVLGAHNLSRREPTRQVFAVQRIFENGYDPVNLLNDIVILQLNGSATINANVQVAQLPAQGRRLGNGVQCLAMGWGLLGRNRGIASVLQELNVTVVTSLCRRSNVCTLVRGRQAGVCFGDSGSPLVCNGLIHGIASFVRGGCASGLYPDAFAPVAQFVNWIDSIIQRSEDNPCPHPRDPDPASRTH
Outline: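 Fluorogenic assay with HNE (MeOSucAAPV-AMC substrate) or human KLK7 ([…] substrate). Test compounds ran as a 10-dose, 3-fold dilution series from 1 μM in duplicate, with controls tested in the same run. Activity was taken from the initial linear slope of the fluorescence increase over time. Results are mean of n = 2, expressed relative to 0.5% DMSO vehicle.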

[2] = biological target: T1, Neutrophil elastase; assay: Inhibition of elastase in human neutrophil using N-(OMe-succinyl)-Ala-Ala-Pro-Val-p-nitroanilide as substrate preincubated with enzyme for 15 mins followed by substrate addition and measured every 30s for 30 mins by absorbance based analysis
Outline: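 HNE stock at 100 μg/mL and substrate stock at 2 mM, both in 0.1 M Tris–0.5 M NaCl pH 7.5. Compound or DMSO was preincubated with enzyme in the same buffer for 15 min at room temperature, then substrate was added. A405 was read every 30 s for 30 min. Activity was taken from the initial slope as a percentage of the uninhibited reaction.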

- IC50 [1]: 3.5 nM
- IC50 [2]: 128 nM
Structure (SMILES): CC(C)(C)C(=O)Oc1ccc(S(=O)(=O)Nc2ccccc2C(=O)NCC(=O)O)cc1
